SMILES strings stand for the structures. The list shows a part of the results, in another mix than the full data. Active and inactive are the calls of the source. Calls follow the shape of the dose curve; as a rule, active = well fitted activation curve with a large enough effect; inconclusive = small, poorly fitted or top-dose-only effect; inactive = no such curve, though single readings can be large or run the other way.

The chains behind the UniProt entries cited, without tags or fusion partners. Where a name states a change or a piece, a line headed by the entry shows the natural chain unless it says otherwise.
UniProt O95398: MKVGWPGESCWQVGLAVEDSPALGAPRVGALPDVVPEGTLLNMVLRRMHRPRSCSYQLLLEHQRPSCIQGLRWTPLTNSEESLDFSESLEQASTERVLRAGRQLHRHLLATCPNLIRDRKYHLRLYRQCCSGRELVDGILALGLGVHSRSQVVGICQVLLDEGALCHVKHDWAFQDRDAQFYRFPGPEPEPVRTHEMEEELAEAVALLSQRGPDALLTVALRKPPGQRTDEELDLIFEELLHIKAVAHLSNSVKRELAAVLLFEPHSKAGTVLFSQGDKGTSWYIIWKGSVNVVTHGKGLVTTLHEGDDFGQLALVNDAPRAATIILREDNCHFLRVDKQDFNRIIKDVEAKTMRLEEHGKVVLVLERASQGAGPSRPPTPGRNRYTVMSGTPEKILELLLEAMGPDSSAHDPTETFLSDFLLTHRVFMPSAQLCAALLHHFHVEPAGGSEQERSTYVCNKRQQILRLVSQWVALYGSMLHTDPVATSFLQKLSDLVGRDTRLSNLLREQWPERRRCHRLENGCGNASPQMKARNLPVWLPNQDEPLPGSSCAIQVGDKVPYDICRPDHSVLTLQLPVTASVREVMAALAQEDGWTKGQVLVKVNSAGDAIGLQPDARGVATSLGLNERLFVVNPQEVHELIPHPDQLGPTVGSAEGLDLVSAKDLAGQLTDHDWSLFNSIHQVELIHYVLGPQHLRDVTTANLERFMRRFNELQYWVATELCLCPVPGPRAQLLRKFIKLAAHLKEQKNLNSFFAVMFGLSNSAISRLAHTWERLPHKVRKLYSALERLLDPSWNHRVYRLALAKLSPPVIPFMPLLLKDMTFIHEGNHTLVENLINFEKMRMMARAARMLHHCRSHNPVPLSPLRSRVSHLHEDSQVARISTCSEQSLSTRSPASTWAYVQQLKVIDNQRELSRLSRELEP

The assay has as its target Rap guanine nucleotide exchange factor 3 (Homo sapiens) (UniProt O95398). The assay can be described thus: qHTS for Agonist of cAMP-regulated guanine nucleotide exchange factor 3 (EPAC1): primary screen. Also: nearly all actives have a fitted effect of over 60% in size. The following applies: biochemical assay, 100% = response to 6.5 mM cAMP; at 154 µM (top of the series). The essentials:
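Nucleotide exchange by EPAC1 (100 nM) on Rap1B–BODIPY-GDP (250 nM) in the presence of 50 uM GDP is tracked fluorescently at 480/540 nm over 30 min. Signals are normalized to a 6.5 mM cAMP control.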
Take `O=[N+]([O-])c1ncn(CCn2ncnc2[N+](=O)[O-])n1`: the activation is inactive: 4.65%.

For `CC(=O)N1C2C3N(C(C)=O)C1C1N(C(C)=O)C(C(N1C(C)=O)N3C(C)=O)N2C(C)=O`, the activation was inactive: 13%.

Regarding `O=[N+]([O-])c1cccc2n[nH]nc12`, the activation is inactive: -2.21%.

Take `Cc1ccc(NP(=O)(Oc2ccccc2)Oc2ccccc2)nc1`: the activation is inactive: 3.86%. For `O=[N+]([O-])c1cc([N+](=O)[O-])c(CCNc2ccccc2)c([N+](=O)[O-])c1`, the activation is inactive: -10.2%.

For the compound `CCc1nc2c(n1)c1c(non1O)c1c2no[n+]1[O-]`, the activation was inactive: -13.2%.

Consider `COc1ccc(C2=NCC(CBr)S2)cc1` (centres undefined), for which the activation was inactive: 8.83%. Regarding `CC(C)=N/N=C(\N)N[N+](=O)[O-]`, the activation is inactive: 11.2%.

Take `CC(C)c1nc(Nc2ccccc2)n(P(=O)(N(C)C)N(C)C)n1`: the activation was inactive: -11.3%.

Consider `CN(C)C(=O)OCCc1n(C)cc[n+]1C`, for which the activation is inactive: 0.942%.

On to `c1cc(-c2nn[nH]n2)ccc1-c1nn[nH]n1`, for which the activation was inactive: -9.04%. Regarding `CC1CCN(C(=O)Oc2c(Cl)cc(Cl)c3cccnc23)CC1`, the activation was inactive: 1.38%. Take `Nc1ccc([As](=O)(O)c2ccc(N)cc2)cc1`: the activation was inactive: -2.13%.

`C[N+]1=C2C=CC=CC=C2SC12C([N+](=O)[O-])=CC([N+](=O)[O-])=C[C-]2[N+](=O)[O-]` (centres undefined): the activation is inactive: 8.28%. For the compound `CCN(/C(=N/P(=O)(N1CCOCC1)N1CCOCC1)N1CCOCC1)c1ccc(OC)cc1`, the activation is inactive: 0.114%. To `c1nnnn1CCn1cnnn1` belongs inactive: 3.89%; to `O=P(Nc1nccs1)(c1ccccc1)c1ccccc1`, inactive: -6%; to `CC(C)C(=O)NC(Sc1ccccc1)C(Cl)(Cl)Cl` (centres undefined), inactive: -4.01%. For the compound `O=P(Nc1nc2ccccc2s1)(c1ccccc1)c1ccccc1`, the activation is inactive: 7.61%. For `C[C@H]1OP(=O)(Oc2ccccc2)[C@H](O)[C@H](O)[C@H]1N=[N+]=[N-]` (some centres undefined), the activation is inactive: -11.7%. In the case of `Nc1ccc(CCCCOc2ccccc2)cc1`, the activation was inactive: -15.7%. To `COc1ccc(N)c([N+](=O)[O-])c1[N+](=O)[O-]` belongs inactive: 4.99%; to `CN(C)C1(CNC(=O)c2ccc(Cl)c(S(N)(=O)=O)c2)CCCCC1`, inactive: -0.323%; to `O=P(Nc1ccccn1)(c1ccc(Br)cc1)c1ccc(Br)cc1`, inactive: -6.17%.

Turning to `Nc1ccc([As](=O)(O)c2ccc([N+](=O)[O-])cc2)cc1`, the activation was inactive: 8.95%.

In the case of `C(Cc1nn[nH]n1)Cc1nn[nH]n1`, the activation is inactive: 14.4%.

`O=C(OC1CN2CCC1CC2)c1cccc(Cl)c1` (centres undefined): the activation is inactive: -1.16%. As for `CC(=O)NC(SC(=S)N(C)C)C(Cl)(Cl)Cl` (centres undefined), the activation was inactive: 0.624%. On to `O=[N+]([O-])c1ncn(CCn2cnc([N+](=O)[O-])n2)n1`, for which the activation was inactive: -2.37%. To `O=[N+]([O-])c1ccc(O)c(/C=N/Nc2ccc([N+](=O)[O-])cc2[N+](=O)[O-])c1` belongs inactive: 6.76%; to `O=[As](O)(c1ccccc1)c1ccc(O)cc1`, inactive: 4.14%; to `O=P1(N(CCCl)CCCl)OCCC2CCCCN21` (centres undefined), inactive: -8.35%.

As to `O=C(NC1CCS(=O)(=O)C1)NP(=S)(Oc1ccccc1)Oc1ccccc1` (centres undefined), the activation was inactive: -8.4%. Consider `CCNC(=S)/N=C(\N)N[N+](=O)[O-]`, for which the activation is inactive: 2.32%.

For the compound `c1ccc(-c2nn[nH]n2)c(-c2nn[nH]n2)c1`, the activation was inactive: -4.64%. In the case of `Cc1ccc(NP(=O)(Oc2cccc(C)c2)Oc2cccc(C)c2)nc1`, the activation was inactive: -2.12%.

Regarding `Cc1ccccc1OP(=O)(Nc1ccccn1)Oc1ccccc1C`, the activation is inactive: 0.983%.

In the case of `CC(NC(=O)COC(=O)C(O)(c1ccccc1)c1ccccc1)c1ccccc1` (centres undefined), the activation was inactive: -1.62%.

Take `CN(C)C(=O)Oc1noc2ccccc12`: the activation is inactive: 10.5%.

For `O=c1c2cc([N+](=O)[O-])ccc2[nH]c2c([N+](=O)[O-])cc([N+](=O)[O-])cc12`, the activation is inactive: 4.06%.

For `COC(=O)c1cc2c(s1)N=C(c1ccccc1)N(C)P2(=O)N1CCOCC1` (centres undefined), the activation was inactive: -2.15%. In the case of `CC(=O)NC(SC(=S)N(CC(C)C)CC(C)C)C(Cl)(Cl)Cl` (centres undefined), the activation is inactive: -8.35%. `Cc1ccc(OP(=O)(Nc2ccccn2)Oc2ccc(C)cc2)cc1`: the activation is inactive: -0.086%. As to `O=C(OC1CN2CCC1CC2)c1ccccc1` (centres undefined), the activation was inactive: 3.48%.

Take `CCC(=O)N1C2C3N(C(=O)CC)C1C1N(C(=O)CC)C(C(N1C(=O)CC)N3C(=O)CC)N2C(=O)CC`: the activation is inactive: -0.193%. To `CCc1cc(O)c([N+](=O)[O-])c(C)c1[N+](=O)[O-]` belongs inactive: -8.6%. `CC(C)(C)C(=O)NC(Sc1ccccc1)C(Cl)(Cl)Cl` (centres undefined): the activation was inactive: -10.7%.

`O=P1(Nc2nc3ccc(Cl)cc3s2)COc2ccccc2O1` (centres undefined): the activation was inactive: -4.22%. Take `CCOc1ccc(C2=NCC(CBr)S2)cc1` (centres undefined): the activation was inactive: 4.97%. On to `CC(=O)Nc1ccc([As](=O)(O)O)c(O)c1`, for which the activation is inactive: -1.71%. To `CC(=O)Nc1ccc(Oc2c([N+](=O)[O-])cc([N+](=O)[O-])cc2[N+](=O)[O-])cc1` belongs inactive: -4.06%; to `N#C/C(=C\c1ccc(N(CCBr)CCBr)cc1)C(N)=O`, inactive: 3.19%; to `CC(=O)c1ccc(N2CC2c2ccncc2)cc1` (centres undefined), inactive: -1.62%. As for `COC(=O)C1(C)COP(=O)(NCc2ccccc2)OC1` (centres undefined), the activation is inactive: 6.03%. As to `Cc1ccccc1CN(C)C(=O)COC(=O)C(O)(c1ccccc1)c1ccccc1`, the activation was inactive: -1.27%.

For the compound `C[C@@H]1C=CCP(=O)(Oc2ccccc2)O1` (some centres undefined), the activation was inactive: -3.19%.

Regarding `C[C@H]1OP(=O)(Oc2ccccc2)C[C@@H]2O[C@@H]21` (some centres undefined), the activation was inactive: -16.1%. Consider `O=[As](O)(c1cccc(O)c1)c1cccc(O)c1`, for which the activation is inactive: 9.78%. With `Cc1cccc(OCC(=O)OC2CN3CCC2CC3)c1` (centres undefined), the activation was inactive: 13.1%.

As for `COc1cc(C(=O)NCC2(N3CCOCC3)CCCCC2)cc(Cl)c1OC(C)C`, the activation is inactive: 4.04%. With `O=[As](O)(O)c1cccnc1`, the activation is inactive: 8.98%.

Consider `CS(=O)(=O)c1ccc(Cl)c(NC(=O)COC(=O)C(O)(c2ccccc2)c2ccccc2)c1`, for which the activation was inactive: 7.87%. To `O=C(OC1CN2CCC1CC2)c1ccc(Cl)cc1` (centres undefined) belongs inactive: -3.13%.

For `COc1cc(C2NCCC3(OCCO3)C2(C)C)cc(OC)c1OC` (centres undefined), the activation was inactive: 2.22%. Turning to `CCOP(=O)(Nc1cccc2ccccc12)OCC`, the activation was inactive: -1.99%.

Consider `CCCOP(=S)(Nc1nc(N)cc(=O)[nH]1)OCCC`, for which the activation is inactive: 8.13%. To `Cc1ccc(NCCc2c([N+](=O)[O-])cc([N+](=O)[O-])cc2[N+](=O)[O-])cc1` belongs inactive: -2.6%. `Nc1cccc2c([As](=O)(O)O)cccc12`: the activation was inactive: 5.45%. For `O=C(O)COc1ccc([As](=O)(O)O)cc1[N+](=O)[O-]`, the activation was inactive: 8.52%.

On to `Nc1ccccc1[As](=O)(O)c1ccccc1`, for which the activation was inactive: -3.6%. For `CS(=O)(=O)c1cc([N+](=O)[O-])c2no[n+]([O-])c2c1`, the activation is inactive: 10.1%. `CCOP1(=S)c2c(C)nn(CCC#N)c2N=C(c2ccccc2F)N1C` (centres undefined): the activation is inactive: 6.42%.

With `O=P(Nc1nccs1)(c1ccccc1)c1nc2ccccc2s1` (centres undefined), the activation was inactive: -3.35%. As for `O=P(Nc1nccs1)(Oc1ccccc1)Oc1ccccc1`, the activation is inactive: 4.16%. With `CN(C)C(=O)c1cc([N+](=O)[O-])cc2c1-c1c(cc([N+](=O)[O-])cc1[N+](=O)[O-])C2=O`, the activation was inactive: 6.2%.

As to `O=[N+]([O-])c1ccc2c(c1)nnn2O`, the activation was inactive: 10.7%. Consider `CN(C(=O)Cc1ccc(Cl)c(Cl)c1)[C@H]1CC[C@@]2(CCCO2)C[C@@H]1N1CCCC1`, for which the activation is inactive: -17.1%. Consider `N#CCCN(C(=O)COC(=O)C(O)(c1ccccc1)c1ccccc1)c1ccc(F)cc1`, for which the activation is inactive: 1.98%.

For `CN(C(=O)Cc1ccccc1)[C@@H]1CC[C@]2(CCCO2)C[C@H]1N1CCCC1`, the activation is inactive: -1.22%.

For the compound `CCOP1(=S)c2c(C)nn(CCC#N)c2N=C(c2ccc(F)cc2)N1C` (centres undefined), the activation is inactive: 7.5%. On to `NC(=O)Nc1ccc([As](=O)(O)O)cc1`, for which the activation was inactive: -18%. For `O=C(/C=C/c1ccccc1)OC1CN2CCC1CC2` (centres undefined), the activation is inactive: 11.9%. For the compound `CCCC1OP(=O)(Nc2ccccc2)OCC1CC` (centres undefined), the activation was inactive: 6.78%.

As to `CN(C)C1(CNC(=O)c2ccc(S(C)(=O)=O)cc2)CCCCC1`, the activation is inactive: 7.79%.

With `Cc1nn(-c2ccccc2)c2c1P(=O)(N1CCOCC1)N(C)C(c1ccccc1)=N2` (centres undefined), the activation was inactive: 5.96%.

With `Cc1ccc(C(=O)OC2CN3CCC2CC3)cc1` (centres undefined), the activation is inactive: -2.3%. On to `CC1CCC(C(C)C)C(OP(=O)(Nc2ccccn2)c2ccccc2)C1` (centres undefined), for which the activation was inactive: -8.52%. For `NS(=O)(=O)c1cccc(NC(=O)COC(=O)C(O)(c2ccccc2)c2ccccc2)c1` the value was inactive: 2.76%.

In the case of `O=P1(Nc2ccc(Br)cn2)COc2ccccc2OC1`, the activation was inactive: 6.94%. To `Cc1ccc(OCC(=O)OC2CN3CCC2CC3)cc1` (centres undefined) belongs inactive: 0.326%. Turning to `O=[As](O)(c1cccs1)c1cccs1`, the activation is inactive: -4.57%. `Nc1cccc([As](=O)(O)c2ccccc2)c1`: the activation was inactive: -6.2%. `O=P1(Nc2ncccn2)COc2ccccc2OC1`: the activation is inactive: 3.74%. As to `Cc1ccc(S(=O)(=O)N(CCCN)CCCc2c(C)nc(N)[nH]c2=O)cc1`, the activation is inactive: -16.2%. For `Clc1n[nH]nc1-c1nn[nH][15n]1` the value was inactive: 0.298%; for `O=P1(N(CCCl)CCCl)NCCC(C(F)(F)F)O1` (centres undefined), inactive: 7.45%. Take `CC(C)(C)C(=O)NC(Sc1ncccn1)C(Cl)(Cl)Cl` (centres undefined): the activation was inactive: -4.56%. Take `CN(CCCl)Cc1cc(Cl)c(NC2=NCCN2)c(Cl)c1`: the activation is inactive: -11.8%.

For `CCOP(=O)(Nc1ccc(C)cn1)OCC`, the activation was inactive: -13.3%.
